Data on 2 molecules can be found in ChEMBL document CHEMBL4118139, “Novel naphthyloxy derivatives - Potent histamine H3 receptor ligands. Synthesis and pharmacological evaluation” (Bioorg Med Chem, 2018).

Sequences of proteins named here, by UniProt entry; tags and fusion partners are left off. A change or cut given only in a name is not applied to a line headed by its entry.
UniProt Q9Y5N1: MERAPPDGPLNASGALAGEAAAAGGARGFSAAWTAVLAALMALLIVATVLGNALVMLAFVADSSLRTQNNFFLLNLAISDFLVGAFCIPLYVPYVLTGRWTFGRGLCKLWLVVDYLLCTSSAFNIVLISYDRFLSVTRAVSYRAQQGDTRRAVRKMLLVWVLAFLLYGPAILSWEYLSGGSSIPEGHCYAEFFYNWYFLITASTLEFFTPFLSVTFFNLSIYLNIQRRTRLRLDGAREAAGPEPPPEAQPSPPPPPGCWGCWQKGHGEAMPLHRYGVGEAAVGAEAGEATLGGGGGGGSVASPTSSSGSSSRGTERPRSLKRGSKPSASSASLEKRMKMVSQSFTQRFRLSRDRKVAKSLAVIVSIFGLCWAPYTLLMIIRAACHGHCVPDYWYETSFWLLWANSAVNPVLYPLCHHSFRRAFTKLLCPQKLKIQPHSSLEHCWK

The target of this assay is Histamine H3 receptor (Homo sapiens, UniProt Q9Y5N1). Kind of assay: biochemical.

The Ki is the equilibrium dissociation constant of an inhibitor or competing ligand from its target. A higher Ki goes with lower affinity. With `C[C@@H](NCc1ccc(OCc2ccc(OCCCN3CCCCC3)cc2)cc1)C(N)=O`, the Ki was found to be 0.0054 µM. The molecule `C[C@H](NCc1ccc(OCc2ccc(OCCCN3CCCCC3)cc2)cc1)C(N)=O` came in with an inhibition constant Ki of 0.021 µM.
